SMILES strings stand for the structures.

Chains of the proteins cited; added tags and fusions are not shown. Residues count along the entry.
UniProt P01375, 77-233 limits assumed: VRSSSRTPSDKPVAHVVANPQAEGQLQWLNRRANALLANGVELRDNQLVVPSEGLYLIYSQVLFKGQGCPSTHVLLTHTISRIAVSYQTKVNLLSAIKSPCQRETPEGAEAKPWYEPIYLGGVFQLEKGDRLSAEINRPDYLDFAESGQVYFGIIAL

In one assay the target is TNFα / TNFα receptor (TNFα R1/Fc) (Homo sapiens, UniProt P01375). Kind of assay: Inhibition of binding of TNFα to the TNFα receptor (plate ELISA competition). To be noted: read-out: Activity (IC50, inhibition of TNFα binding to TNFα R1/Fc); Table 2. Here is the method:
The compounds listed in Table 2 below were assayed for ability to inhibit binding of TNFα to the TNFα receptor (TNFα R1/Fc). The assays were performed as described in the following procedure: TNFα (R&D Systems) was coated on high binding plate wells (Corning 96-well) at a single uniform concentration of 15 nM, 100 μL/well in PBS. The coating proceeded for 30 minutes at 37° C. then 10 minutes at 4° C. The coated plate was washed with PBST, then 250 μL/well of blocking solution (PBST 0.1% BSA, bovine serum albumin) was added and incubation proceeded for 30-45 minutes at room temperature with agitation. The solution phase competition proceeded separately with the dilutions of test compound in PBST (phosphate buffered saline with Tween 20), 2% DMSO in a polypropylene plate (Corning 96-well storage plate) with a single concentration, 8.33 nM of the high affinity receptor for TNFα (R&D Systems). This solution phase incubation proceeded for 30 minutes at room temperature with agitation and was then added to the washed TNFα coated assay plate, 100 μL/well, and was incubated for a further 30 minutes at room temperature with agitation. The assay plate was washed and 100 μL goat anti-human IgG (Fc) HRP labeled antibody in PBST, 13 pM, (KPL Cat#04-10-2) was added to each well. This incubation proceeded for 25-30 minutes at room temperature with agitation. Following this incubation step, the plate was washed and a 100 μL TMB solution (SUREBLUE™ TMB Peroxidase substrate, KPL) was added per well and allowed to stand approximately 3-5 minutes for development. The TMB reaction was stopped with the addition of 0.5N HCl and then the plate was read for absorbance at 450 nm.
On the technique in general: An ELISA detects its analyte on a solid surface through an enzyme-linked reagent.
Regarding `CN1C(=O)COc2ccc(cc2)C[C@@H](C(=O)O)NC(=O)[C@H](CCc2ccccc2)NC(=O)[C@@H](Cc2ccc(-c3ccccc3)cc2)NC(=O)[C@@H]1Cc1ccccc1`, the IC50 is above 100 µM. The same measure, in the same setting: the same measure for `O=C1COc2ccc(cc2)C[C@@H](C(=O)NCCS(=O)(=O)O)NC(=O)[C@H](CCc2ccccc2)NC(=O)[C@@H](Cc2ccc(-c3ccccc3)cc2)NC(=O)[C@H](Cc2ccncc2)N1`: below 10 µM; for `CN1C(=O)[C@@H](Cc2ccc(-c3ccccc3)cc2)NC(=O)[C@H](Cc2cccs2)NC(=O)COc2ccc(cc2)C[C@@H](C(=O)O)NC(=O)[C@@H]1Cc1ccccc1`: above 100 µM; for `CS(=O)(=O)NC(=O)[C@@H]1Cc2ccc(cc2)OCC(=O)N[C@@H](Cc2cccs2)C(=O)N[C@H](Cc2ccc(-c3ccccc3)cc2)C(=O)N[C@@H](CCc2ccccc2)C(=O)N1`: below 10 µM. Still for that read-out and setting: the same measure for `CS(=O)(=O)CC[C@@H]1NC(=O)COc2ccc(cc2)C[C@@H](C(=O)O)NC(=O)[C@H](CCc2ccccc2)NC(=O)[C@@H](Cc2ccc(-c3ccccc3)cc2)NC1=O`: below 10 µM; for `O=C1COc2ccc(cc2)C[C@@H](C(=O)O)NC(=O)[C@H](Cc2cccs2)NC(=O)[C@@H](Cc2ccc(-c3ccccc3)cc2)NC(=O)[C@H](Cc2cccs2)N1`: below 10 µM. On the same count and under the same terms, the same measure for `O=C1COc2ccc(cc2)C[C@@H](C(=O)NCS(=O)(=O)O)NC(=O)[C@H](Cc2ccc(-c3cccnc3)cc2)NC(=O)[C@@H](Cc2ccc(-c3ccccc3)cc2)NC(=O)[C@H](Cc2cccs2)N1`: below 10 µM. As for `O=C1COc2ccc(cc2)C[C@@H](C(=O)NCCCS(=O)(=O)O)NC(=O)[C@H](CCc2ccccc2)NC(=O)[C@@H](Cc2ccc(-c3ccccc3)cc2)NC(=O)[C@H](Cc2ccc(-c3ccccc3)cc2)N1`, the IC50 lay in the range of 10 to 30 µM. Still for that read-out and setting: next, `O=C1COc2ccc(cc2)C[C@@H](C(=O)O)NC(=O)[C@H](Cc2c[nH]c3ccccc23)NC(=O)[C@@H](Cc2ccc(-c3ccccc3)cc2)NC(=O)[C@H](Cc2ccncc2)N1` [Compound 653]: below 10 µM; `O=C1COc2ccc(cc2)C[C@@H](C(=O)NCS(=O)(=O)O)NC(=O)[C@H](Cc2ccccc2)NC(=O)[C@H](Cc2ccc(-c3ccccc3)cc2)NC(=O)[C@H](Cc2cccs2)N1`: above 100 µM; `O=C1COc2ccc(cc2)C[C@@H](C(=O)NCCc2nnn[nH]2)NC(=O)[C@H](CCc2ccccc2)NC(=O)[C@@H](Cc2ccc(-c3ccccc3)cc2)NC(=O)[C@H](Cc2ccc(-c3ccccc3)cc2)N1`: below 10 µM.

For the compound `O=C1COc2ccc(cc2)C[C@@H](C(=O)NCc2nnn[nH]2)NC(=O)[C@H](CCc2ccccc2)NC(=O)[C@@H](Cc2ccc(-c3ccccc3)cc2)NC(=O)[C@H](Cc2ccncc2)N1`, the IC50 is below 10 µM.

For the compound `O=C1COc2ccc(cc2)C[C@@H](C(=O)N[C@@H](CCc2ccccc2)C(=O)O)NC(=O)[C@H](CCc2ccccc2)NC(=O)[C@@H](Cc2ccc(-c3ccccc3)cc2)NC(=O)[C@H](Cc2ccc(-c3ccccc3)cc2)N1`, the IC50 is above 100 µM. On the same count and under the same terms, the same measure for `O=C1COc2ccc(cc2)C[C@@H](C(=O)O)NC(=O)[C@H](CCc2ccccc2)NC(=O)[C@@H](Cc2ccc(-c3ccccc3)cc2)NC(=O)[C@H](Cc2ccc(-c3cc(F)cc(F)c3)cc2)N1`: below 10 µM. The same measure, in the same setting: next, `O=C1COc2ccc(cc2)C[C@@H](C(=O)O)NC(=O)[C@H](Cc2cccc(F)c2)NC(=O)[C@@H](Cc2ccc(-c3ccccc3)cc2)NC(=O)[C@H](Cc2ccncc2)N1`: below 10 µM; `O=C1COc2ccc(cc2)C[C@@H](C(=O)NCCS(=O)(=O)O)NC(=O)[C@H](CCc2ccccc2)NC(=O)[C@@H](Cc2ccc(-c3ccccc3)cc2)NC(=O)[C@H](Cc2cccs2)N1`: below 10 µM; `O=C1COc2ccc(cc2)C[C@H](C(=O)NCS(=O)(=O)O)NC(=O)[C@@H](CCc2ccccc2)NC(=O)[C@H](Cc2ccc(-c3ccccc3)cc2)NC(=O)[C@@H](Cc2cccs2)N1`: below 10 µM.

`O=C1C[C@@H](c2ccc(O)cc2)NC(=O)[C@@H](Cc2ccc(-c3ccccc3)cc2)NC(=O)[C@H](Cc2ccncc2)NC(=O)COc2ccc(cc2)C[C@@H](C(=O)O)N1`: the IC50 was above 100 µM.

Consider `O=C1COc2ccc(cc2)C[C@@H](C(=O)O)NC(=O)[C@H](Cc2ccccc2F)NC(=O)[C@@H](Cc2ccc(-c3ccccc3)cc2)NC(=O)[C@H](Cc2ccncc2)N1`, for which the IC50 was below 10 µM. Take `O=C1COc2ccc(cc2)C[C@@H](C(=O)NCS(=O)(=O)O)NC(=O)[C@H](CCc2ccccc2)NC(=O)[C@@H](Cc2ccc(-c3ccccc3)cc2)NC(=O)[C@H](Cc2ccncc2)N1`: the IC50 lay within 10 to 30 µM.

On to `O=C1COc2ccc(cc2)C[C@@H](C(=O)N[C@H](CCc2ccccc2)C(=O)O)NC(=O)[C@H](CCc2ccccc2)NC(=O)[C@@H](Cc2ccc(-c3ccccc3)cc2)NC(=O)[C@H](Cc2ccc(-c3ccccc3)cc2)N1`, for which the IC50 was below 10 µM.

As to `COc1cccc(C[C@@H]2NC(=O)[C@@H](Cc3ccc(-c4ccccc4)cc3)NC(=O)[C@H](Cc3cccs3)NC(=O)COc3ccc(cc3)C[C@@H](C(=O)O)NC2=O)c1`, the IC50 was in the range of 10 to 30 µM.

As for `O=C1COc2ccc(cc2)C[C@@H](C(=O)O)NC(=O)[C@H](CCc2ccccc2)NC(=O)[C@@H](Cc2ccc(-c3ccccc3)cc2)NC(=O)[C@H](Cc2cccc(F)c2)N1`, the IC50 was below 10 µM. Take `O=C1COc2ccc(cc2)C[C@@H](C(=O)NCc2nnn[nH]2)NC(=O)[C@H](CCc2ccccc2)NC(=O)[C@@H](Cc2ccc(-c3ccccc3)cc2)NC(=O)[C@H](Cc2ccc(-c3ccncc3)cc2)N1`: the IC50 was below 10 µM.

`O=C1COc2ccc(cc2)C[C@@H](C(=O)NCc2nnn[nH]2)NC(=O)[C@H](CCc2ccccc2)NC(=O)[C@@H](Cc2ccc(-c3ccccc3)cc2)NC(=O)[C@H](Cc2ccc(-c3ccccc3)cc2)N1`: the IC50 was below 10 µM. On the same count and under the same terms, next, `O=C1COc2ccc(cc2)C[C@@H](C(=O)NCS(=O)(=O)O)NC(=O)[C@H](CCc2ccccc2)NC(=O)[C@@H](Cc2ccc(-c3ccccc3)cc2)NC(=O)[C@H](Cc2ccc(-c3ccccc3)cc2)N1`: above 100 µM. Same read-out and setting: next, `O=C1COc2ccc(cc2)C[C@@H](C(=O)O)NC(=O)[C@H](CCc2ccccc2)NC(=O)[C@@H](Cc2ccc(-c3ccccc3)cc2)NC(=O)[C@H](Cc2ccc(-c3cccs3)cc2)N1`: below 10 µM; `CC(C)[C@@H]1NC(=O)COc2ccc(cc2)C[C@@H](C(=O)O)NC(=O)[C@H](CCc2ccccc2)NC(=O)[C@@H](Cc2ccc(-c3ccccc3)cc2)NC1=O`: below 10 µM.

Staying with this assay, now noted: read-out: Activity (IC50, inhibition of TNFα binding to TNFα R1/Fc); Table 2; tested form: TFA.
Take `O=C1COc2ccc(cc2)C[C@@H](C(=O)O)NC(=O)[C@H](CCc2ccccc2)NC(=O)[C@@H](Cc2ccc(-c3cccnc3)cc2)NC(=O)[C@H](Cc2cccs2)N1`: the IC50 is below 10 µM.

The record behind these values is US8338565B2, “Macrocyclic compounds for inhibition of tumor necrosis factor alpha” (Ensemble Therapeutics Corporation, priority 2008, dated 2012).
